# Source: patent publication US20130116274A1, “THERAPEUTIC COMBINATIONS CONTAINING RILUZOLE” (RUTGERS, THE STATE UNIVERSITY OF NEW JERSEY, priority 2011, published 2013)
# Assays:
# [1] = tested on: UACC903 melanoma cells; test: Cell cycle analysis (propidium iodide flow cytometry), UACC903; format: cell-based, human; conditions: riluzole 10 μM, 48 hours
# [2] = tested on: 1205Lu melanoma cells; test: Cell cycle analysis (propidium iodide flow cytometry), 1205Lu; format: cell-based, human; conditions: riluzole 10 μM, 48 hours
# [3] = tested on: A2058 melanoma cells; test: Cell cycle analysis (propidium iodide flow cytometry), A2058; format: cell-based, human; conditions: riluzole 10 μM, 48 hours
# [4] = tested on: C8161 human melanoma xenografts; test: C8161 xenografts in immunodeficient nude mice; format: in vivo; conditions: riluzole 10 mg/kg
# Method: (§1) The Institutional Review Board approved all animal studies for the Animal Care and Facilities Committee of Rutgers University. Nude mice were purchased from Taconic (Hudson, N.Y.). Cells were injected into 2 dorsal sites of each mouse at 10^6 cells per site. Tumor size was measured twice a week with a Vernier caliper and calculated as described. Once tumor volumes reached 6-10 mm^3, mice were divided into no treatment and treatment groups. […] The experiments were terminated when the xenografts in the no treatment group reached the maximum permitted size.
# C8161 human melanoma cells were inoculated into the dorsal flanks of immunodeficient nude mice. 10^6 cells were inoculated into each dorsal flank of 5-6 week-old mice. When the tumors reached tumor volumes of ˜10 mm^3, the mice were randomly divided in 5 groups with similar tumor volumes. The mice were then treated by oral gavage daily, except for […] treatment, which was administered three times a week. […] Tumor volumes were determined once a week with a vernier caliper and the experiment was terminated when tumor burden in the control animals reached maximum permitted levels.
# [5] = tested on: UACC903 human melanoma xenografts; test: UACC903 xenografts in immunodeficient nude mice; format: in vivo; conditions: riluzole 10 mg/kg, sorafenib 24 mg/kg, or riluzole 5 mg/kg + sorafenib 12 mg/kg daily oral gavage; FIG. 3B; p<0.01 single agents day 18, p<0.001 combination
# Method: as §1
# Briefly, UACC903 cells were injected into the dorsal flanks of nude mice. Tumors were allowed to grow to approximately 6-10 mm^3 and mice were divided into groups to obtain relatively constant tumor volumes between each group (12 mice per group).
# [6] = tested on: 1205Lu human melanoma xenografts; test: 1205Lu xenografts in immunodeficient nude mice; format: in vivo; conditions: riluzole 10 mg/kg, sorafenib 24 mg/kg, or riluzole 5 mg/kg + sorafenib 12 mg/kg daily oral gavage; FIG. 3C
# Method: as §1
smiles,measurement,setting,value
Nc1nc2ccc(OC(F)(F)F)cc2s1 [riluzole],shift of the cell population to the subG1 phase,[1],10-to-20 fold
same,shift of the cell population to the subG1 phase,[2],10-to-20 fold
same,shift of the cell population to the subG1 phase,[3],10-to-20 fold
same,tumor volume / xenograft growth,"[4]; MK2206 30 mg/kg, or riluzole 5 mg/kg + MK2206 15 mg/kg, oral gavage, FIG. 6, combination p<0.005 vs NT or vehicle",suppress the growth of the melanoma xenografts
same,tumor volume,"[4]; sorafenib 24 mg/kg, or riluzole 5 mg/kg + sorafenib 12 mg/kg daily oral gavage, FIG. 3A, p<0.001 for riluzole and combination vs NT or Veh",significant decrease in the tumor volumes
same,tumor volume,[5],statistically relevant responses
same,tumor volume response compared to UACC903 xenografts,[6],more sensitive
